Test results reported in PubChem BioAssay AID588342 (National Center for Advancing Translational Sciences (NCATS), 2011).
Only a part is listed here, and it is no random draw. Records with an inconclusive call do not appear. Calls of active or inactive are those of the source. Calls follow the shape of the dose curve; as a rule, active = well fitted inhibition curve with a large enough effect; inconclusive = small, poorly fitted or top-dose-only effect; inactive = flat fitted curve, though single readings scatter.

The chains behind the UniProt entries cited, without tags or fusion partners.
UniProt P08659, whole entry: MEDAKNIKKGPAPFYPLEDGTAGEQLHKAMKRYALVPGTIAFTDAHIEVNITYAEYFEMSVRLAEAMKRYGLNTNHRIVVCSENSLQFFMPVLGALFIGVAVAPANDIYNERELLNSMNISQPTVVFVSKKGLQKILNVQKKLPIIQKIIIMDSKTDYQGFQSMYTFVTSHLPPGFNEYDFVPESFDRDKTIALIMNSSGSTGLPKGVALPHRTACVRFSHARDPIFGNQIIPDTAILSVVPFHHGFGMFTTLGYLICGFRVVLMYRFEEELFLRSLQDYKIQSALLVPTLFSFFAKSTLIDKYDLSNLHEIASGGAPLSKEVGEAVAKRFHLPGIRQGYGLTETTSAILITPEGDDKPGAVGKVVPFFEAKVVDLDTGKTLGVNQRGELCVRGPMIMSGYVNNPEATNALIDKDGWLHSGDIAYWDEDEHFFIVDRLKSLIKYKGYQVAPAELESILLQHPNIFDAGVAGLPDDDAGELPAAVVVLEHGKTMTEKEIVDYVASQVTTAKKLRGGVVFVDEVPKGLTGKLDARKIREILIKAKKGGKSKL

The compounds below were run against Luciferin 4-monooxygenase (Photinus pyralis) (UniProt P08659) (assay: qHTS profiling assay for firefly luciferase inhibitor/activator using purifed enzyme and Km concentrations of substrates (counterscreen for miR-21 project)). Details: purified FLuc, luminescence inhibition; at 57.5 µM (top of the series).
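Also: plate controls were vehicle for no effect and reference inhibitor for full effect; nearly all actives have a fitted effect of over 55% in size.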

Compound | activity change, negative = inhibition
CP(=O)(Nc1ccccn1)Oc1ccccc1 (centres undefined) | inactive: -0.0114%
COc1ccccc1OP(C)(=O)Nc1ccc(C)cc1C (centres undefined) | inactive: 4.59%
CCc1ccc(OP(C)(=O)O)cc1 | inactive: -4.38%
CCN(CC)CC(O)COC(=O)C(O)(c1ccccc1)C1CCCCC1 (centres undefined) | inactive: 5.25%
COc1ccc(OP(C)(=O)Nc2ccc(Br)cc2)cc1 (centres undefined) | inactive: -2.51%
COc1ccccc1OP(C)(=O)Nc1c(C)n(C)n(-c2ccccc2)c1=O (centres undefined) | inactive: 0.574%
O=C(OCCCN1CCCC1)C(O)(c1ccccc1)C1CCCCC1 (centres undefined) | inactive: 1.48%
CP(=O)(Oc1ccccc1)N1CCOC1=O (centres undefined) | inactive: 1.64%
CCc1ccc(OP(C)(=O)Nc2cccnc2)cc1 (centres undefined) | inactive: -0.759%
CC(C)(C)c1ccc(OP(C)(=O)O)cc1 | inactive: -3.71%
COc1ccccc1OP(C)(=O)Nc1ccccc1Br (centres undefined) | inactive: 2.8%
CP(=O)(Nc1ccc(Cl)cc1)Oc1ccc(F)cc1 (centres undefined) | inactive: -0.0393%
CN(C)C(=O)c1c([N+](=O)[O-])cc([N+](=O)[O-])cc1[N+](=O)[O-] | inactive: -4.52%
CCOC(=O)c1ccc(NP(C)(=O)Oc2ccc(Cl)cc2)cc1 (centres undefined) | inactive: 1.74%
CP(=O)(OC12CC3CC(CC(C3)C1)C2)OC12CC3CC(CC(C3)C1)C2 | inactive: -0.23%
CP(=S)(Nn1cnnc1)Oc1ccccc1 (centres undefined) | inactive: -0.812%
CP(=O)(Nc1ccccc1Br)Oc1ccccc1 (centres undefined) | inactive: 0.386%
COc1ccccc1OP(C)(=O)Nc1ccccc1 (centres undefined) | inactive: 2.64%
CP(=O)(Nc1ccc(SC(F)(F)F)cc1)Oc1ccc(Cl)cc1 (centres undefined) | inactive: -0.691%
Cc1cccc(C)c1OP(C)(=O)Nc1ccc(SC(F)(F)F)cc1 (centres undefined) | inactive: -1.01%
CP(=O)(Oc1ccccc1)OC(c1ccccc1)C(F)(F)F (centres undefined) | inactive: 0.246%
CCc1ccc(OP(C)(=O)N2CCN(c3ccc([N+](=O)[O-])cc3)CC2)cc1 (centres undefined) | inactive: -2.73%
CP(=O)(NC(=O)Nc1ccccc1)Oc1ccccc1 (centres undefined) | inactive: -0.697%
Cc1cc(C)cc(OP(C)(=O)Nc2ccc(SC(F)(F)F)cc2)c1 (centres undefined) | inactive: 1.37%
CCOC(=O)c1ccc(NP(C)(=O)Oc2ccc(OC)cc2)cc1 (centres undefined) | inactive: 4.26%

Compound | activity change, negative = inhibition
CCOP(C)(=S)SCC(=O)NC(C)C(=O)O (centres undefined) | inactive: -1.45%
CP(=O)(Nc1ccccn1)Oc1ccc(Cl)cc1 (centres undefined) | inactive: 4.74%
CCN(CC)CCCOC(=O)C(O)(c1ccccc1)c1ccccc1 | inactive: 1.62%
O=[N+]([O-])c1cc([N+](=O)[O-])c(Nc2cccnc2)c([N+](=O)[O-])c1 | inactive: -9.36%
O=[N+]([O-])c1ccc2c(c1)C=Nc1ccccc1O2 | inactive: -9.31%
CC(C)(C)c1ccc(OP(C)(=O)Nc2ccc(SC(F)(F)F)cc2)cc1 (centres undefined) | inactive: 0.457%
Cc1cccc(C)c1OP(C)(N)=O (centres undefined) | inactive: -1.51%
COc1ccccc1OP(C)(=O)Nc1ccc(C)cc1 (centres undefined) | inactive: -1.97%
Cc1ccc(NP(C)(=O)Oc2ccccc2)c(C)c1 (centres undefined) | inactive: -2.07%
CCOC(=O)c1ccc(NP(C)(=O)Oc2ccccc2)cc1 (centres undefined) | inactive: -0.164%
Cc1cc(C)cc(OP(C)(N)=O)c1 (centres undefined) | inactive: -1.75%
COc1ccccc1OP(C)(=O)Nc1cc(Cl)ccc1C (centres undefined) | inactive: -1.96%
COc1ccc(OP(C)(=O)Nc2cccc(F)c2)cc1 (centres undefined) | inactive: -1.48%
CC1=NCCc2c1[nH]c1ccccc21.O=[N+]([O-])c1cc([N+](=O)[O-])c(O)c([N+](=O)[O-])c1 | inactive: 2.82%
COc1ccccc1OP(C)(=O)Nc1cccc(Br)c1 (centres undefined) | inactive: -1.01%
CCOC(=O)c1ccc(NP(C)(=O)Oc2cc(C)cc(C)c2)cc1 (centres undefined) | inactive: 1.67%
Cc1cc(C)cc(OP(C)(=O)Nc2ccc(C)cc2C)c1 (centres undefined) | inactive: 6.25%
Cc1ccc(C)c(NP(C)(=O)Oc2ccccc2)c1 (centres undefined) | inactive: 1.57%
CP(=O)(Nc1cccc(Br)c1)Oc1ccccc1 (centres undefined) | inactive: -5.59%
Cc1cc(C)cc(OP(C)(=O)Nc2ccccn2)c1 (centres undefined) | inactive: 0.977%
CN1CCCCC1COC(=O)C1(O)c2ccccc2CCc2ccccc21 (centres undefined) | inactive: 0.358%
COc1ccccc1OP(C)(=O)Nc1c(C)cccc1C (centres undefined) | inactive: 0.307%
CP(=O)(Nc1ccc(SC(F)(F)F)cc1)Oc1ccccc1 (centres undefined) | inactive: -1.08%
CCCOc1ccc(NP(C)(=O)Oc2ccc(Cl)cc2)cc1 (centres undefined) | inactive: -2.46%
